{
  "source": "patent US8101552B2",
  "about": "“Cyclic phosphates as plant growth regulators” (dated 2012)",
  "key": {"African violet [1]": {"test_system": "African violet", "experiment": "Plantlet growth from excised African violet leaves on solid MS medium (Example 1)", "conditions": "for effect on plantlet growth: after 4 weeks; for development of shoots and roots from leaf base to form new plantlets: no other plant growth regulators, αGP at 200 μM; for biomass accumulated by entire plantlet cluster: after 8 weeks"}, "African violet [2]": {"test_system": "African violet", "experiment": "Direct organogenesis on African violet leaf, two-month treatment (FIG. 2)"}, "Rubia roots (clone R4C)": {"test_system": "Rubia roots (clone R4C)", "experiment": "Rubia root growth on solid MS under light or darkness", "conditions": "1 μM; for biomass accumulation of Rubia roots / growth rate of Rubia roots: under darkness; for positive effects on biomass accumulation and growth rate of Rubia roots: under light"}, "Saintpaulia ionantha": {"test_system": "Saintpaulia ionantha", "experiment": "Organogenesis (propagules) from leaf cuttings in MS medium (Example 3)", "conditions": "2 successive cultures each of 2 months"}, "[3]": {"test_system": "transformed callus of Rubia tinctorum", "experiment": "Survival and growth of light-sensitive transformed callus under light (Example 2)", "conditions": "various concentrations"}},
  "data": [
    {"compound": "DL-α-Glycerophosphate", "values": [
      {"measurement": "effect on plantlet growth", "setting": "African violet [1]; 200 μM", "value": "only an insignificant effect"},
      {"measurement": "development of shoots and roots from leaf base to form new plantlets", "setting": "African violet [1]", "value": "no such growth was observed"}
    ]},
    {"compound": "[Na+].[O-]P1OCCCO1", "values": [
      {"measurement": "effect on direct organogenesis (number and biomass of propagules on leaf)", "setting": "African violet [2]", "value": "had an effect on direct organogenesis"}
    ]},
    {"compound": "O=[N+]([O-])C1(CO)COP(O)OC1", "note": "(stereo not shown)", "values": [
      {"measurement": "effect on direct organogenesis (number and biomass of propagules on leaf)", "setting": "African violet [2]", "value": "had an effect on direct organogenesis"},
      {"measurement": "biomass accumulation of Rubia roots", "setting": "Rubia roots (clone R4C)", "value": "stimulated biomass accumulation"},
      {"measurement": "growth rate of Rubia roots", "setting": "Rubia roots (clone R4C)", "value": "stimulated"},
      {"measurement": "positive effects on biomass accumulation and growth rate of Rubia roots", "setting": "Rubia roots (clone R4C)", "value": "not observed"}
    ]},
    {"compound": "O=[N+]([O-])C1(CO)COP([O-])OC1.[Na+]", "note": "(stereo not shown)", "values": [
      {"measurement": "effect on direct organogenesis (number and biomass of propagules on leaf)", "setting": "African violet [2]", "value": "had an effect on direct organogenesis"},
      {"measurement": "biomass accumulated by entire plantlet cluster", "setting": "African violet [1]; 1 μM", "value": 228, "unit": "mg FW"},
      {"measurement": "biomass accumulated by entire plantlet cluster", "setting": "African violet [1]; 10 μM", "value": 470, "unit": "mg FW"},
      {"measurement": "biomass accumulated by entire plantlet cluster", "setting": "African violet [1]; 100 μM", "value": 412, "unit": "mg FW"},
      {"measurement": "effect on plantlet growth", "setting": "African violet [1]; 200 μM", "value": "had an effect on plantlet growth"},
      {"measurement": "biomass accumulated by entire plantlet cluster", "setting": "African violet [1]; 200 μM", "value": 541, "unit": "mg FW"},
      {"measurement": "development of shoots and roots from leaf base to form new plantlets", "setting": "African violet [1]", "value": "shoots and roots developed from the leaf base"},
      {"measurement": "number of plantlets produced per original leaf cutting", "setting": "Saintpaulia ionantha; 1 μM", "value": 6.5},
      {"measurement": "number of plantlets produced per original leaf cutting", "setting": "Saintpaulia ionantha; 10 μM", "value": 4},
      {"measurement": "number of plantlets produced per original leaf cutting", "setting": "Saintpaulia ionantha; 100 μM", "value": 8.5},
      {"measurement": "number of plantlets produced per original leaf cutting", "setting": "Saintpaulia ionantha; 200 μM", "value": 0.5},
      {"measurement": "callus survival and growth under light", "setting": "[3]", "value": "allowing the callus to survive and grow under light"},
      {"measurement": "biomass accumulation of Rubia roots", "setting": "Rubia roots (clone R4C)", "value": "stimulated biomass accumulation"},
      {"measurement": "growth rate of Rubia roots", "setting": "Rubia roots (clone R4C)", "value": "stimulated"},
      {"measurement": "positive effects on biomass accumulation and growth rate of Rubia roots", "setting": "Rubia roots (clone R4C)", "value": "not observed"}
    ]}
  ]
}
